According to patent publication US6936585B2, “Corticotropin releasing factor 2 receptor agonists” (priority 2002, dated 2005):

Experiments:
[1] = molecular target: T1, CRF2R (Homo sapiens, UniProt Q13324); test: CRF2R agonist activation (EC50 / Emax), called comparative CRF binding; type: cell-based; conditions: for Emax: read-out: CRF2R Emax
T1 sequence (Q13324 1-411): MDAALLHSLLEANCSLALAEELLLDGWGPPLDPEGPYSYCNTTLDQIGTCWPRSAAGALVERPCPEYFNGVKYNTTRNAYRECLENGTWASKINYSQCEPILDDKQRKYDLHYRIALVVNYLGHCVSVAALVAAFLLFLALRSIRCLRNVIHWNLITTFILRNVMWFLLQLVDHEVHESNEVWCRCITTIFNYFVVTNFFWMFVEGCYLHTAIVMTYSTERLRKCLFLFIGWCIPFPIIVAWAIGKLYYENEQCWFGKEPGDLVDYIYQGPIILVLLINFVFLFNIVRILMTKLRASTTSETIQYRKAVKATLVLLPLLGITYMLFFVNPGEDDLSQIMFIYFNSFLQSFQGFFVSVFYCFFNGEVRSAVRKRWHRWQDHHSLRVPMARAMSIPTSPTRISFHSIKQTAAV
In short: (§1)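 Read-out is Gαs-driven cAMP induction, quantified directly in lysates or through CRE-reporter gene expression, after treating CRF1R- or CRF2R-expressing cells with peptide. Vehicle-treated cells serve as the comparison.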

[2] = molecular target: T2, CRF1R (Homo sapiens, UniProt P34998); test: CRF1R agonist activation (EC50 / Emax), called comparative CRF binding; type: cell-based; conditions: for EC50: CRF1R EC50; for Emax: read-out: CRF1R Emax
T2 sequence (P34998 24-415): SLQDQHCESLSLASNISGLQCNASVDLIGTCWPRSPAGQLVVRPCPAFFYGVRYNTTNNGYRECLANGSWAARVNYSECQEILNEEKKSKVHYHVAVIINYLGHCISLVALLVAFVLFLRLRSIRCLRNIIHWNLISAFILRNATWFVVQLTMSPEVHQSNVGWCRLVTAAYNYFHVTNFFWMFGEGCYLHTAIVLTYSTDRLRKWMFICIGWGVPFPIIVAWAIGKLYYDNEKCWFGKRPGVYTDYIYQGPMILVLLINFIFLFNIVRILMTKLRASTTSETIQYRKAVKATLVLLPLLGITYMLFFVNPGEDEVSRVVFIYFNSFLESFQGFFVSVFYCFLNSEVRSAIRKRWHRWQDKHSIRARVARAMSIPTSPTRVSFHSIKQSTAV
In short: as §1

## CC[C@H](C)[C@H](NC(=O)[C@@H](NC(=O)[C@H](CC(=O)O)NC(=O)[C@H](CC(C)C)NC(=O)[C@H](CC(C)C)NC(=O)[C@H](CC(C)C)NC(=O)[C@H](CCCNC(=N)N)NC(=O)[C@H](CC(N)=O)NC(=O)[C@H](CC(N)=O)NC(=O)[C@H](C)NC(=O)[C@H](C)NC(=O)[C@H](CCC(N)=O)NC(=O)[C@H](CCC(N)=O)NC(=O)[C@H](CCCCN)NC(=O)[C@H](CCC(=O)O)NC(=O)[C@H](CCCCN)NC(=O)[C@H](CCC(=O)O)NC(=O)[C@H](CCC(N)=O)NC(=O)[C@H](CCCCN)NC(=O)[C@H](CCC(=O)O)NC(=O)[C@@H](NC(=O)[C@H](CCC(=O)O)NC(=O)[C@@H](NC(=O)[C@H](CCSC)NC(=O)[C@H](CCCCN)NC(=O)[C@H](CCCNC(=N)N)NC(=O)[C@H](CC(C)C)NC(=O)[C@H](CC(C)C)NC(=O)[C@@H](NC(=O)[C@H](Cc1ccc(O)cc1)NC(=O)[C@@H]1CCCN1C(=O)[C@H](CC(C)C)NC(=O)[C@H](CC(=O)O)NC(=O)[C@@H](NC(=O)[C@H](CO)NC(=O)[C@@H](NC(=O)[C@@H]1CCCN1C(=O)[C@@H]1CCCN1C(=O)CNC(=O)[C@@H]1CCC(=O)N1)[C@@H](C)CC)[C@@H](C)CC)C(C)C)[C@@H](C)CC)[C@@H](C)CC)[C@@H](C)O)C(N)=O [compound 201]
[1]
  EC50: 5 nM
  Emax: 100%
[2]
  EC50: 99.6 nM
  Emax: 80%

## CC[C@H](C)[C@H](NC(=O)[C@@H](NC(=O)[C@H](CC(=O)O)NC(=O)[C@H](CC(C)C)NC(=O)[C@H](CC(C)C)NC(=O)[C@H](CC(C)C)NC(=O)[C@H](CCCNC(=N)N)NC(=O)[C@H](CC(N)=O)NC(=O)[C@H](CC(N)=O)NC(=O)[C@H](C)NC(=O)[C@H](C)NC(=O)[C@H](CCC(N)=O)NC(=O)[C@H](CCC(N)=O)NC(=O)[C@H](CCCCN)NC(=O)[C@H](CCC(=O)O)NC(=O)[C@H](CCCCN)NC(=O)[C@H](CCC(=O)O)NC(=O)[C@H](CCC(N)=O)NC(=O)[C@H](CCCCN)NC(=O)[C@H](CCC(=O)O)NC(=O)[C@@H](NC(=O)[C@H](CCC(=O)O)NC(=O)[C@@H](NC(=O)[C@H](CCSC)NC(=O)[C@H](CCCCN)NC(=O)[C@H](CCCNC(=N)N)NC(=O)[C@H](CC(C)C)NC(=O)[C@H](CC(C)C)NC(=O)[C@H](Cc1ccccc1)NC(=O)[C@H](CC(C)C)NC(=O)[C@@H]1CCCN1C(=O)[C@H](CC(C)C)NC(=O)[C@H](CC(=O)O)NC(=O)[C@@H](NC(=O)[C@H](CO)NC(=O)[C@@H](NC(=O)[C@@H]1CCCN1C(=O)[C@@H]1CCCN1C(=O)CNC(=O)[C@@H]1CCC(=O)N1)[C@@H](C)CC)[C@@H](C)CC)[C@@H](C)CC)[C@@H](C)CC)[C@@H](C)O)C(N)=O [compound 195]
[1]
  EC50: 18.8 nM
[2]
  EC50: 103 nM
  Emax: 93%

## CC[C@H](C)[C@H](NC(=O)[C@@H](NC(=O)[C@H](CC(=O)O)NC(=O)[C@H](CC(C)C)NC(=O)[C@H](CC(C)C)NC(=O)[C@H](CC(C)C)NC(=O)[C@H](CCCNC(=N)N)NC(=O)[C@H](CC(N)=O)NC(=O)[C@H](CC(N)=O)NC(=O)[C@H](C)NC(=O)[C@H](C)NC(=O)[C@H](CCC(N)=O)NC(=O)[C@H](CCC(N)=O)NC(=O)[C@H](CCCCN)NC(=O)[C@H](CCC(=O)O)NC(=O)[C@H](CCCCN)NC(=O)[C@H](CCC(=O)O)NC(=O)[C@H](CCC(N)=O)NC(=O)[C@H](CCCCN)NC(=O)[C@H](CCC(=O)O)NC(=O)[C@@H](NC(=O)[C@H](CCC(=O)O)NC(=O)[C@@H](NC(=O)[C@H](CCSC)NC(=O)[C@H](CCCCN)NC(=O)[C@H](CCCNC(=N)N)NC(=O)[C@H](CC(C)C)NC(=O)[C@H](CC(C)C)NC(=O)[C@H](CCC(=O)O)NC(=O)[C@H](Cc1ccccc1)NC(=O)[C@@H]1CCCN1C(=O)[C@H](CC(C)C)NC(=O)[C@H](CC(=O)O)NC(=O)[C@@H](NC(=O)[C@H](CO)NC(=O)[C@@H](NC(=O)[C@@H]1CCCN1C(=O)[C@@H]1CCCN1C(=O)CNC(=O)[C@@H]1CCC(=O)N1)[C@@H](C)CC)[C@@H](C)CC)[C@@H](C)CC)[C@@H](C)CC)[C@@H](C)O)C(N)=O [compound 67]
[1]
  Emax: 50%
[2]
  Emax: 96%

## CC[C@H](C)[C@H](NC(=O)[C@@H](NC(=O)[C@H](CC(=O)O)NC(=O)[C@H](CC(C)C)NC(=O)[C@H](CC(C)C)NC(=O)[C@H](CC(C)C)NC(=O)[C@H](CCCNC(=N)N)NC(=O)[C@H](CC(N)=O)NC(=O)[C@H](CC(N)=O)NC(=O)[C@H](C)NC(=O)[C@H](C)NC(=O)[C@H](CCC(N)=O)NC(=O)[C@H](CCC(N)=O)NC(=O)[C@H](CCCCN)NC(=O)[C@H](CCC(=O)O)NC(=O)[C@H](CCCCN)NC(=O)[C@H](CCC(=O)O)NC(=O)[C@H](CCC(N)=O)NC(=O)[C@H](CCCCN)NC(=O)[C@H](CCC(=O)O)NC(=O)[C@@H](NC(=O)[C@H](CCC(=O)O)NC(=O)[C@@H](NC(=O)[C@H](CCSC)NC(=O)[C@H](CCCCN)NC(=O)[C@H](CCCNC(=N)N)NC(=O)[C@H](CC(C)C)NC(=O)[C@H](CC(C)C)NC(=O)[C@H](Cc1c[nH]cn1)NC(=O)[C@H](Cc1ccccc1)NC(=O)[C@@H]1CCCN1C(=O)[C@H](CC(C)C)NC(=O)[C@H](CC(=O)O)NC(=O)[C@@H](NC(=O)[C@H](CO)NC(=O)[C@@H](NC(=O)[C@@H]1CCCN1C(=O)[C@@H]1CCCN1C(=O)CNC(=O)[C@@H]1CCC(=O)N1)[C@@H](C)CC)[C@@H](C)CC)[C@@H](C)CC)[C@@H](C)CC)[C@@H](C)O)C(N)=O [compound 69]
[1]
  Emax: 81%
[2]
  Emax: 88%

## CC[C@H](C)[C@H](NC(=O)[C@@H](NC(=O)[C@H](CC(=O)O)NC(=O)[C@H](CC(C)C)NC(=O)[C@H](CC(C)C)NC(=O)[C@H](CC(C)C)NC(=O)[C@H](CCCNC(=N)N)NC(=O)[C@H](CC(N)=O)NC(=O)[C@H](CC(N)=O)NC(=O)[C@H](C)NC(=O)[C@H](C)NC(=O)[C@H](CCC(N)=O)NC(=O)[C@H](CCC(N)=O)NC(=O)[C@H](CCCCN)NC(=O)[C@H](CCC(=O)O)NC(=O)[C@H](CCCCN)NC(=O)[C@H](CCC(=O)O)NC(=O)[C@H](CCC(N)=O)NC(=O)[C@H](CCCCN)NC(=O)[C@H](CCC(=O)O)NC(=O)[C@@H](NC(=O)[C@H](CCC(=O)O)NC(=O)[C@@H](NC(=O)[C@H](CCSC)NC(=O)[C@H](CCCCN)NC(=O)[C@H](CCCNC(=N)N)NC(=O)[C@H](CC(C)C)NC(=O)[C@H](CC(C)C)NC(=O)CNC(=O)[C@@H](NC(=O)[C@@H]1CCCN1C(=O)[C@H](CC(C)C)NC(=O)[C@H](CC(=O)O)NC(=O)[C@@H](NC(=O)[C@H](CO)NC(=O)[C@@H](NC(=O)[C@@H]1CCCN1C(=O)[C@@H]1CCCN1C(=O)CNC(=O)[C@@H]1CCC(=O)N1)[C@@H](C)CC)[C@@H](C)CC)[C@@H](C)O)[C@@H](C)CC)[C@@H](C)CC)[C@@H](C)O)C(N)=O [compound 73]
[1]
  Emax: 11%
[2]
  Emax: 11%

## CC[C@H](C)[C@H](NC(=O)[C@H](CCCNC(=N)N)NC(=O)[C@H](C)NC(=O)[C@H](CC(C)C)NC(=O)[C@H](CC(C)C)NC(=O)[C@H](CCCNC(=N)N)NC(=O)[C@H](C)NC(=O)[C@H](CC(N)=O)NC(=O)[C@H](CC(N)=O)NC(=O)[C@H](C)NC(=O)[C@H](C)NC(=O)[C@H](CCC(N)=O)NC(=O)[C@H](CCC(N)=O)NC(=O)[C@H](CCCCN)NC(=O)[C@H](CCC(=O)O)NC(=O)[C@H](CCCCN)NC(=O)[C@H](CCC(=O)O)NC(=O)[C@H](CCC(N)=O)NC(=O)[C@H](CCCCN)NC(=O)[C@H](CCC(=O)O)NC(=O)[C@@H](NC(=O)[C@H](CCC(=O)O)NC(=O)[C@@H](NC(=O)[C@@H](NC(=O)[C@H](CCCCN)NC(=O)[C@H](CCCNC(=N)N)NC(=O)[C@H](CC(C)C)NC(=O)[C@H](CC(C)C)NC(=O)[C@H](Cc1c[nH]c2ccccc12)NC(=O)[C@H](Cc1ccc(O)cc1)NC(=O)[C@@H]1CCCN1C(=O)[C@@H](NC(=O)[C@H](CC(=O)O)NC(=O)[C@@H](NC(=O)[C@H](CO)NC(=O)[C@@H](NC(=O)[C@@H]1CCCN1C(=O)[C@@H]1CCCN1C(=O)CNC(=O)[C@@H]1CCC(=O)N1)[C@@H](C)CC)[C@@H](C)CC)C(C)C)C(C)C)[C@@H](C)CC)[C@@H](C)CC)C(N)=O [compound 373]
[1]
  EC50: 11.5 nM
  Emax: 100%
[2]
  EC50: ≥ 1000 nM
  Emax: 9%
